In this assay the test system is LN229. As to the kind of experiment: ENb-TRAIL induced apoptosis after cetuximab pre-treatment (Western blot, caspase3/7 assay). As to conditions: cetuximab pre-treatment 30 min, then ENb-TRAIL 8 h. Format: cell-based. The text has this:
(FIG. 14A) Western blot (upper panel) and caspase3/7 assay (lower panel) showing changes in apoptotic markers.

Regarding “Cetuximab: EGFR specific monoclonal antibody”, the ENb-TRAIL-induced apoptosis entry is recorded as “significantly reduced”.
